Assays:
[1] = target: human recombinant ETA receptors (Homo sapiens, UniProt P25101); test: Inhibition of [125I]ET-1 binding to membranes from CHO cells carrying human ETA receptors; details: read-out: IC50 ETA; CHO cell membranes, 8 pM [125I]ET-1, 2 h at 20° C.
[2] = target: human recombinant ETB receptors (Homo sapiens, UniProt P24530); test: Inhibition of [125I]ET-1 binding to membranes from CHO cells carrying human ETB receptors; details: read-out: IC50 ETB; CHO cell membranes, 8 pM [125I]ET-1, 2 h at 20° C.

Chains of the proteins cited; added tags and fusions are not shown. Residues count along the entry.
UniProt P25101, 21-427 limits assumed: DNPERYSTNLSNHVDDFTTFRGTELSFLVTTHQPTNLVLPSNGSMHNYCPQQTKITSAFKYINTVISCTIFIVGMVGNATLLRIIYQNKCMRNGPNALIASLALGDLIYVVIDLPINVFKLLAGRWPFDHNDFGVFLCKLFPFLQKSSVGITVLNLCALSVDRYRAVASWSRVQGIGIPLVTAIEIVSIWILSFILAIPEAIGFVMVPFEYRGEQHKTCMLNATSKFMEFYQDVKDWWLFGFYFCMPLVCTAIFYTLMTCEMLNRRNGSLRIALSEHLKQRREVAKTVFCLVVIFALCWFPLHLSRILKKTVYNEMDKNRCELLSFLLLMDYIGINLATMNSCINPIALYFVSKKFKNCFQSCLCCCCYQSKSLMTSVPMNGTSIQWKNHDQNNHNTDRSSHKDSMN
UniProt P24530, 27-442 limits assumed: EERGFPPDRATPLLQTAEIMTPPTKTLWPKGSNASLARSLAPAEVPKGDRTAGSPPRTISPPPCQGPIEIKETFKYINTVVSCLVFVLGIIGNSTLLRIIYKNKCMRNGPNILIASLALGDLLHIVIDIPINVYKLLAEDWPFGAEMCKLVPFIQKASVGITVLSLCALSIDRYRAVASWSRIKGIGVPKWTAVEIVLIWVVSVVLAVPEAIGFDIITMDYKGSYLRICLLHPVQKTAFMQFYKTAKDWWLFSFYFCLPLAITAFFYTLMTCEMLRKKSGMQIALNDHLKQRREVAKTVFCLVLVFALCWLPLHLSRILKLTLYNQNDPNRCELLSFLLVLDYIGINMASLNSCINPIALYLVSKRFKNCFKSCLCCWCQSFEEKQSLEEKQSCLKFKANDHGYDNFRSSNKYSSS

Structure (SMILES): Cc1cnc(OCCOc2ncnc(NS(=O)(=O)/C=C/c3ccccc3)c2-c2ccc(Cl)cc2)nc1
- IC50 [1]: 27.2 nM
- IC50 [2]: 4140 nM

Structure (SMILES): COc1cnc(OCCOc2ncnc(NS(=O)(=O)/C=C/c3ccccc3)c2-c2ccc(Cl)cc2)nc1
- IC50 [1]: 10.6 nM
- IC50 [2]: 832 nM

Structure (SMILES): O=S(=O)(/C=C/c1ccccc1)Nc1ncnc(OCCOc2ccc(Br)cn2)c1-c1ccc(Cl)cc1
- IC50 [1]: 41.7 nM
- IC50 [2]: 541 nM

Structure (SMILES): COc1ccccc1Oc1c(NS(=O)(=O)/C=C/c2ccccc2)nc(-c2ccncc2)nc1OCCOc1ncc(Cl)cn1 [Example 164]
- IC50 [1]: 15 nM
- IC50 [2]: 756 nM

Structure (SMILES): COc1ccc(Cl)c(Oc2c(NS(=O)(=O)/C=C/c3ccccc3)ncnc2OCCOc2ncc(SC)cn2)c1
- IC50 [1]: 4.3 nM
- IC50 [2]: 145 nM

Structure (SMILES): Cc1ccc(-c2c(NS(=O)(=O)/C=C/c3ccccc3)ncnc2OCCOc2ncc(C)cn2)cc1
- IC50 [1]: 28.7 nM
- IC50 [2]: 3990 nM

Structure (SMILES): Cc1ccc(/C=C/S(=O)(=O)Nc2ncnc(OCCOc3ncc(Br)cn3)c2-c2ccc(Cl)cc2)cc1
- IC50 [1]: 24 nM
- IC50 [2]: 277 nM

Structure (SMILES): COc1cccc(Oc2c(NS(=O)(=O)/C=C/c3ccccc3)nc(N3CCOCC3)nc2OCCOc2ncc(Br)cn2)c1
- IC50 [1]: 26 nM
- IC50 [2]: 3130 nM
